Chains of the proteins cited; added tags and fusions are not shown. Residues count along the entry.
UniProt Q9Y490, 309-401: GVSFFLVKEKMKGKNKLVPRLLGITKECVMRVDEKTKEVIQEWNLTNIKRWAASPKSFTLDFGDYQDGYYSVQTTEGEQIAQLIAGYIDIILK

In paper PMC12102759 (Protein Science : A Publication of the Protein Society, 2025):

Target: TLN1 PTB (Homo sapiens, UniProt Q9Y490)
Assay type: binding

| Substance | DMS-derived PSSM value of the single-substitution variant | DMS-derived PSSM value, averaged over the two overlapping peptides |
| --- | --- | --- |
| TDERSWVYSPLHYSAQ T1V (VDERSWVYSPLHYSAQ) | 0.02903 |  |
| TDERSWVYSPLHYSAQ R4Q (TDEQSWVYSPLHYSAQ) | 0.05478 |  |
| TDERSWVYSPLHYSAQ S14V (TDERSWVYSPLHYVAQ) | 0.2377 |  |
| TDERSWVYSPLHYS(averaged) Y13S (TDERSWVYSPLHSS) |  | 0.09287 |
| FPTDERSWVYSPLHYS P2D (FDTDERSWVYSPLHYS) | 0.1938 |  |
| TDERSWVYSPLHYS(averaged) W6L (TDERSLVYSPLHYS) |  | 0.001423 |
| FPTDERSWVYSPLHYS L13D (FPTDERSWVYSPDHYS) | 0 |  |
| TDERSWVYSPLHYS(averaged) Y8N (TDERSWVNSPLHYS) |  | 0.04735 |
| FPTDERSWVYSPLHYS Y10S (FPTDERSWVSSPLHYS) | 0.2908 |  |
| FPTDERSWVYSPLHYS D4M (FPTMERSWVYSPLHYS) | 0.01007 |  |
| TDERSWVYSPLHYS(averaged) Y8W (TDERSWVWSPLHYS) |  | 0.02327 |
| TDERSWVYSPLHYSAQ H12N (TDERSWVYSPLNYSAQ) | 0.1359 |  |
| TDERSWVYSPLHYS(averaged) Y8H (TDERSWVHSPLHYS) |  | 0.06096 |
| TDERSWVYSPLHYS(averaged) P10P |  | 0.1035 |
| TDERSWVYSPLHYSAQ W6N (TDERSNVYSPLHYSAQ) | 0.01276 |  |
| TDERSWVYSPLHYS(averaged) V7P (TDERSWPYSPLHYS) |  | 0.0001309 |
| FPTDERSWVYSPLHYS V9W (FPTDERSWWYSPLHYS) | 0.05341 |  |
| FPTDERSWVYSPLHYS R6P (FPTDEPSWVYSPLHYS) | 0.02335 |  |
| FPTDERSWVYSPLHYS P2F (FFTDERSWVYSPLHYS) | 0.006141 |  |
| TDERSWVYSPLHYS(averaged) E3V (TDVRSWVYSPLHYS) |  | 0.02019 |
| TDERSWVYSPLHYS(averaged) Y13Q (TDERSWVYSPLHQS) |  | 0.02841 |
| FPTDERSWVYSPLHYS P2A (FATDERSWVYSPLHYS) | 0.01047 |  |
| FPTDERSWVYSPLHYS P2M (FMTDERSWVYSPLHYS) | 0.07329 |  |

| Substance | DMS-derived PSSM value of the single-substitution variant | DMS-derived PSSM value, averaged over the two overlapping peptides |
| --- | --- | --- |
| FPTDERSWVYSPLHYS L13F (FPTDERSWVYSPFHYS) | 0.05572 |  |
| FPTDERSWVYSPLHYS W8Y (FPTDERSYVYSPLHYS) | 0 |  |
| TDERSWVYSPLHYSAQ A15A | 0.2053 |  |
| FPTDERSWVYSPLHYS D4E (FPTEERSWVYSPLHYS) | 0.01007 |  |
| TDERSWVYSPLHYSAQ Y8W (TDERSWVWSPLHYSAQ) | 0.03901 |  |
| TDERSWVYSPLHYSAQ P10D (TDERSWVYSDLHYSAQ) | 0.02825 |  |
| TDERSWVYSPLHYSAQ R4R | 0.1255 |  |
| FPTDERSWVYSPLHYS S11R (FPTDERSWVYRPLHYS) | 0 |  |
| FPTDERSWVYSPLHYS T3W (FPWDERSWVYSPLHYS) | 0.08976 |  |
| TDERSWVYSPLHYS(averaged) V7V |  | 0.04353 |
| TDERSWVYSPLHYS(averaged) S5Y (TDERYWVYSPLHYS) |  | 0.02194 |
| TDERSWVYSPLHYS(averaged) P10E (TDERSWVYSELHYS) |  | 0.01979 |
| TDERSWVYSPLHYSAQ V7A (TDERSWAYSPLHYSAQ) | 0.3675 |  |
| TDERSWVYSPLHYS(averaged) W6T (TDERSTVYSPLHYS) |  | 0.002222 |
| TDERSWVYSPLHYSAQ E3D (TDDRSWVYSPLHYSAQ) | 0.01286 |  |
| TDERSWVYSPLHYSAQ Y8Y | 0.07238 |  |
| TDERSWVYSPLHYS(averaged) D2P (TPERSWVYSPLHYS) |  | 0.02635 |
| TDERSWVYSPLHYSAQ D2M (TMERSWVYSPLHYSAQ) | 0.01172 |  |
| FPTDERSWVYSPLHYS R6A (FPTDEASWVYSPLHYS) | 0.2635 |  |
| TDERSWVYSPLHYSAQ P10N (TDERSWVYSNLHYSAQ) | 0.09594 |  |
| TDERSWVYSPLHYSAQ L11W (TDERSWVYSPWHYSAQ) | 0.04442 |  |
| TDERSWVYSPLHYSAQ A15E (TDERSWVYSPLHYSEQ) | 0.1052 |  |
| TDERSWVYSPLHYSAQ S5D (TDERDWVYSPLHYSAQ) | 0.1255 |  |

| Substance | DMS-derived PSSM value of the single-substitution variant | DMS-derived PSSM value, averaged over the two overlapping peptides |
| --- | --- | --- |
| FPTDERSWVYSPLHYS R6H (FPTDEHSWVYSPLHYS) | 0.00412 |  |
| FPTDERSWVYSPLHYS L13V (FPTDERSWVYSPVHYS) | 0.04234 |  |
| TDERSWVYSPLHYSAQ L11Q (TDERSWVYSPQHYSAQ) | 0.001723 |  |
| FPTDERSWVYSPLHYS P2P | 0.03327 |  |
| FPTDERSWVYSPLHYS Y10H (FPTDERSWVHSPLHYS) | 0.005897 |  |
| TDERSWVYSPLHYS(averaged) Y8A (TDERSWVASPLHYS) |  | 0.02105 |
| FPTDERSWVYSPLHYS S7N (FPTDERNWVYSPLHYS) | 0.009808 |  |
| FPTDERSWVYSPLHYS H14A (FPTDERSWVYSPLAYS) | 0.04045 |  |
| FPTDERSWVYSPLHYS H14H | 0.02344 |  |
| TDERSWVYSPLHYSAQ V7D (TDERSWDYSPLHYSAQ) | 0.004676 |  |
| TDERSWVYSPLHYSAQ S9G (TDERSWVYGPLHYSAQ) | 0.0005945 |  |
| TDERSWVYSPLHYS(averaged) T1V (VDERSWVYSPLHYS) |  | 0.01914 |
| FPTDERSWVYSPLHYS S11P (FPTDERSWVYPPLHYS) | 0.2041 |  |
| FPTDERSWVYSPLHYS H14R (FPTDERSWVYSPLRYS) | 0.02865 |  |
| FPTDERSWVYSPLHYS S11A (FPTDERSWVYAPLHYS) | 0.1933 |  |
| TDERSWVYSPLHYS(averaged) V7L (TDERSWLYSPLHYS) |  | 0.03993 |
| TDERSWVYSPLHYS(averaged) E3W (TDWRSWVYSPLHYS) |  | 0.151 |
| TDERSWVYSPLHYSAQ A15I (TDERSWVYSPLHYSIQ) | 0.009074 |  |
| TDERSWVYSPLHYS(averaged) T1A (ADERSWVYSPLHYS) |  | 0.05626 |
| FPTDERSWVYSPLHYS E5H (FPTDHRSWVYSPLHYS) | 0.05296 |  |
| TDERSWVYSPLHYSAQ W6S (TDERSSVYSPLHYSAQ) | 0 |  |
| TDERSWVYSPLHYSAQ T1Y (YDERSWVYSPLHYSAQ) | 0.01376 |  |
| FPTDERSWVYSPLHYS V9P (FPTDERSWPYSPLHYS) | 0 |  |

| Substance | DMS-derived PSSM value of the single-substitution variant | DMS-derived PSSM value, averaged over the two overlapping peptides |
| --- | --- | --- |
| FPTDERSWVYSPLHYS S7I (FPTDERIWVYSPLHYS) | 0.3729 |  |
| TDERSWVYSPLHYS(averaged) R4Y (TDEYSWVYSPLHYS) |  | 0.03628 |
| TDERSWVYSPLHYS(averaged) H12F (TDERSWVYSPLFYS) |  | 0.02314 |
| FPTDERSWVYSPLHYS V9I (FPTDERSWIYSPLHYS) | 0.003533 |  |
| FPTDERSWVYSPLHYS H14P (FPTDERSWVYSPLPYS) | 0.0415 |  |
| TDERSWVYSPLHYS(averaged) L11W (TDERSWVYSPWHYS) |  | 0.2188 |
| FPTDERSWVYSPLHYS P2G (FGTDERSWVYSPLHYS) | 0.02423 |  |
| TDERSWVYSPLHYS(averaged) D2M (TMERSWVYSPLHYS) |  | 0.01089 |
| FPTDERSWVYSPLHYS T3F (FPFDERSWVYSPLHYS) | 0.002155 |  |
| FPTDERSWVYSPLHYS Y15R (FPTDERSWVYSPLHRS) | 0.002018 |  |
| FPTDERSWVYSPLHYS D4T (FPTTERSWVYSPLHYS) | 0.04433 |  |
| TDERSWVYSPLHYS(averaged) Y8K (TDERSWVKSPLHYS) |  | 0.05157 |
| TDERSWVYSPLHYS(averaged) S9Q (TDERSWVYQPLHYS) |  | 0.00205 |
| TDERSWVYSPLHYSAQ D2K (TKERSWVYSPLHYSAQ) | 0.002514 |  |
| FPTDERSWVYSPLHYS S16G (FPTDERSWVYSPLHYG) | 0.1494 |  |
| TDERSWVYSPLHYSAQ P10G (TDERSWVYSGLHYSAQ) | 0.05499 |  |
| FPTDERSWVYSPLHYS E5G (FPTDGRSWVYSPLHYS) | 0.02315 |  |
| TDERSWVYSPLHYS(averaged) P10G (TDERSWVYSGLHYS) |  | 0.1174 |
| TDERSWVYSPLHYS(averaged) R4L (TDELSWVYSPLHYS) |  | 0.06167 |
| TDERSWVYSPLHYSAQ R4W (TDEWSWVYSPLHYSAQ) | 0.006906 |  |
| TDERSWVYSPLHYS(averaged) S14P (TDERSWVYSPLHYP) |  | 0.0181 |
| FPTDERSWVYSPLHYS P12N (FPTDERSWVYSNLHYS) | 0.03853 |  |
